Tests used:
[1] = molecular target: PDE4B (human recombinant) (Homo sapiens, UniProt Q07343); test: Inhibition of PDE4B activity: Radioactive Scintillation Proximity Assay (SPA); assay type: biochemical; conditions: SPA or FP format not given, tested form: HCl
PDE5 (human recombinant) = PDE5 (human recombinant) (Homo sapiens, UniProt O76074); test: Inhibition of PDE5 activity: Radioactive Scintillation Proximity Assay (SPA); conditions: tested form: HCl

Amino acid sequences for entries named in this document (tags omitted). Residues count along the entry.
UniProt Q07343, 1-564 isoform 2: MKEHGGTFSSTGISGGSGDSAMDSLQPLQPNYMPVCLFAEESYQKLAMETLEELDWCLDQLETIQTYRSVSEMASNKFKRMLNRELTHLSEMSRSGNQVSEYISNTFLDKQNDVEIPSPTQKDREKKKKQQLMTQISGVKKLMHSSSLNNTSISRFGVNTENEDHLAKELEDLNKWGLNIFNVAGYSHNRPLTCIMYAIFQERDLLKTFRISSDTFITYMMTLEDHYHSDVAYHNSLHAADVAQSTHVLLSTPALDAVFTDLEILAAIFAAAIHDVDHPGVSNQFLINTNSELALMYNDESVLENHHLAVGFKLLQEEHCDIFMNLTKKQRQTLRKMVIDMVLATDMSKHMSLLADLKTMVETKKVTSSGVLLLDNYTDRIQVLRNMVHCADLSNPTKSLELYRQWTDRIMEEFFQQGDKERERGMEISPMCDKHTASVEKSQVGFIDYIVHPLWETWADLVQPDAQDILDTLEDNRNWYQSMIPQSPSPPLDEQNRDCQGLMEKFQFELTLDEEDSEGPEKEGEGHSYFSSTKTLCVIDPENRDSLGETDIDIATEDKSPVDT

Structure (SMILES): COc1ccc(CNc2c(C(N)=O)cnc3ccc(S(=O)(=O)c4ccccc4)cc23)cc1Cl
- PDE4B mean pIC50 [1]: 6.6
- PDE5 mean pIC50 (PDE5 (human recombinant)): 5.5

Structure (SMILES): CC(C)c1cccc(Nc2c(C(N)=O)cnc3ccc(S(=O)(=O)c4ccccc4)cc23)c1
- PDE4B mean pIC50 [1]: 7.3
- PDE5 mean pIC50 (PDE5 (human recombinant)): 5.0

Source: patent US7566786B2, “Quinoline derivatives as phosphodiesterase inhibitors” (Glaxo Group Limited, priority 2003, dated 2009)
